This passage reports IC50 results from patent US8470836B2, “Dipeptidyl peptidase-IV inhibiting compounds, methods of preparing the same, and pharmaceutical compositions containing the same as active agent” (LG Life Sciences, Ltd., priority 2007, dated 2013).

Protein sequences, listed by entry. Tags and fused reporters are not part of them.
UniProt Q86TI2, whole entry: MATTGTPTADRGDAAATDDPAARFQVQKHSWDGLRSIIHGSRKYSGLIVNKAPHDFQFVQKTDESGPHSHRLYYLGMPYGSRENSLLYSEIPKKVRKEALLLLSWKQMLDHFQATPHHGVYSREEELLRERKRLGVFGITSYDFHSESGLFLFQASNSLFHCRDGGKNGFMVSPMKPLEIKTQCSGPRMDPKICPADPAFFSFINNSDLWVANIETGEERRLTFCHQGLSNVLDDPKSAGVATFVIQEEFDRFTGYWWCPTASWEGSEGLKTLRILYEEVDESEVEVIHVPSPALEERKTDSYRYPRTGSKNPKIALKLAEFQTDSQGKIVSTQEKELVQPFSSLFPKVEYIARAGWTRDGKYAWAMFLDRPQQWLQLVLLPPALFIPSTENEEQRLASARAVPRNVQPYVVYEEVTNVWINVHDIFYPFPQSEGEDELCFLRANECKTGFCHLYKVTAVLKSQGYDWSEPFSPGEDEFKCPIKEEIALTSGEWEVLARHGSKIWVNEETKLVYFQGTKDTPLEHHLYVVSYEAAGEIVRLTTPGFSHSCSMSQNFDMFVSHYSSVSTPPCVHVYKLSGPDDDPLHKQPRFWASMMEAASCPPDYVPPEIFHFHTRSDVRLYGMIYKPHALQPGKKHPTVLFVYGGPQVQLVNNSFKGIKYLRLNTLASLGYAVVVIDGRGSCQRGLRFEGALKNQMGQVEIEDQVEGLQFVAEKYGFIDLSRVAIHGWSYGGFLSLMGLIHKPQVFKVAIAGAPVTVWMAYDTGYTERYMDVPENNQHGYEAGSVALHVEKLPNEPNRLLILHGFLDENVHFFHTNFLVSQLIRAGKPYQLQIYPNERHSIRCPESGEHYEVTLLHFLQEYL
UniProt Q6V1X1, whole entry: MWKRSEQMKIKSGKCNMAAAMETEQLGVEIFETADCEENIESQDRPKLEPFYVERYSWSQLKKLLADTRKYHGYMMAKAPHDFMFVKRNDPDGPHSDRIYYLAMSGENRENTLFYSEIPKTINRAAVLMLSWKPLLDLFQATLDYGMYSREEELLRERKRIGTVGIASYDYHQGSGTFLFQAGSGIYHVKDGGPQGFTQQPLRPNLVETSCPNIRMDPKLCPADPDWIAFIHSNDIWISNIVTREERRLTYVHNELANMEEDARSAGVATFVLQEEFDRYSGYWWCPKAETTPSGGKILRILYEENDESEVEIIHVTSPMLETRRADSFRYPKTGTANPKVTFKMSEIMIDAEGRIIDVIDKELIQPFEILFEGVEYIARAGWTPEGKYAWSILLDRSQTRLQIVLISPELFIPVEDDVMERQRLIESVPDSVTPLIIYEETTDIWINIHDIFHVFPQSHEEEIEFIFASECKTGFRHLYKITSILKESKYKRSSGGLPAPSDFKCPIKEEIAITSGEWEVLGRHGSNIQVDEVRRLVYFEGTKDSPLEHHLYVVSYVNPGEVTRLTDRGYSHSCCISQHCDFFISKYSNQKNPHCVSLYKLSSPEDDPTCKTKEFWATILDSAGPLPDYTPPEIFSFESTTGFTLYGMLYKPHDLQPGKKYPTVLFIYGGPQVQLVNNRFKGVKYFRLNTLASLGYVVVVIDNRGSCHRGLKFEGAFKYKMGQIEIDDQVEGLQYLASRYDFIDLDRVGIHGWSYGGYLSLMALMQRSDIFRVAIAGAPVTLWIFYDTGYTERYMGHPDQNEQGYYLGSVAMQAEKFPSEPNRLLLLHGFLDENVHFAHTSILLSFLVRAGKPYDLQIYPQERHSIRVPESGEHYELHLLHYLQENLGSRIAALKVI

Common to all, as to type: biochemical
One assay addresses DPP-IX (Homo sapiens (Human), UniProt Q86TI2). Briefly: Measurement of DPP-IX inhibitory activity (Gly-Pro-AFC). To be noted: read-out: DPP-IX; 100 μM Gly-Pro-AFC, 50 mM HEPES pH 7.5, room temperature.
A further assay deals with DPP-II (Homo sapiens (Human), UniProt Q9UHL4). Nature of the assay: Measurement of DPP-II inhibitory activity (Gly-Pro-AFC). The settings on record: read-out: DPP-II; 100 μM Gly-Pro-AFC, 50 mM acetic acid pH 4.5, room temperature.
A further assay concerns the target DPP-VIII (Homo sapiens (Human), UniProt Q6V1X1). Nature of the assay: Measurement of DPP-VIII inhibitory activity (Gly-Pro-AFC). The settings on record: read-out: DPP-VIII; 100 μM Gly-Pro-AFC, 50 mM HEPES pH 7.5, room temperature.

On to `N[C@@H](CC(=O)N1CCc2c(nc(C(F)(F)F)nc2C(F)(F)F)C1)CN1CC(F)(F)CCC1=O`, for which the IC50 on DPP-IX was 124 µM; on DPP-II it was above 400 µM; at DPP-VIII it was 15 µM.
